The structures appear in SMILES notation.

The source of these data is patent publication US6750375B2, “Transgenic mouse comprising a disruption in an RGS9 gene” (California Institute of Technology, priority 2000, dated 2004).

The assay deals with RGS9 knockout mice and their wild type littermates. Kind of assay: Locomotor activity (photobeam cage rack) in unlesioned animals. The note with it: mouse, in vivo. How it is done:
RGS9 knockout mice and their wild type littermates were placed in the photobeam cage rack activity system. The photobeam cage rack activity system was made by San Diego Instruments. Single events represent disruption of two distinct light beams 10 cm apart. Before drug administration, animals were allowed to habituate for 30 min. which was scored as baseline activity. […] All drugs were injected intraperitoneally. Drug effects were assessed for 30 min. Bodyweight was measured prior to all drug applications.
Locomotion in Unlesioned Animals

`CCCN1CCC[C@@H]2Cc3n[nH]cc3C[C@H]21` [quinpirole]: the locomotion result is “dramatically reduced locomotion” and the “locomotion, RGS9 deficient animals vs wild type” value is “trend of being less affected”.
